{"source": "patent US6022951A", "about": "“Streptavidin mutants” (priority 1996, dated 2000)", "origin": "cited, not measured here", "details": "pH 7 at 25° C.; cited from earlier work", "data": [{"substance": "streptavidin", "values": [{"measurement": "dissociation rate constant for streptavidin-biotin complexes", "result": "2.8e-06", "unit": "s⁻¹"}]}]}
